# Experimental data from US20190351076A1, “TUMOR CELL XENOGRAFT MODEL IN ZEBRAFISH, AND METHODS OF CONSTRUCTING AND USING THE SAME” (NANJING EMORY BIOTECHNOLOGY CO., LTD., priority 2017, published 2019).
# Tested on: HCC827
# Assay: Human lung cancer cell line xenograft model in zebrafish (HCC827)
# Format: in vivo
# Conditions: 50 μM and 5 μM soak for three days, day 7 after injection
compound,measurement,value
COc1cc2ncnc(Nc3ccc(F)c(Cl)c3)c2cc1OCCCN1CCOCC1 [gefitinib],sensitivity of lung cancer cell line to gefitinib,sensitive
